What was measured:
[1] = target: cyclin B–MYT1 interaction (Homo sapiens, UniProt P14635); assay: Cyclin B1 immunoprecipitation, MYT1 binding; assay type: cell-based; conditions: NCI-H1048, 300 nM, 2 h
[2] = target: cyclin B–WEE1 interaction (Homo sapiens, UniProt P14635); assay: Cyclin B1 immunoprecipitation, WEE1 binding; assay type: cell-based; conditions: NCI-H1048, 300 nM, 2 h

Chains of the proteins cited; added tags and fusions are not shown.
UniProt P14635, whole entry: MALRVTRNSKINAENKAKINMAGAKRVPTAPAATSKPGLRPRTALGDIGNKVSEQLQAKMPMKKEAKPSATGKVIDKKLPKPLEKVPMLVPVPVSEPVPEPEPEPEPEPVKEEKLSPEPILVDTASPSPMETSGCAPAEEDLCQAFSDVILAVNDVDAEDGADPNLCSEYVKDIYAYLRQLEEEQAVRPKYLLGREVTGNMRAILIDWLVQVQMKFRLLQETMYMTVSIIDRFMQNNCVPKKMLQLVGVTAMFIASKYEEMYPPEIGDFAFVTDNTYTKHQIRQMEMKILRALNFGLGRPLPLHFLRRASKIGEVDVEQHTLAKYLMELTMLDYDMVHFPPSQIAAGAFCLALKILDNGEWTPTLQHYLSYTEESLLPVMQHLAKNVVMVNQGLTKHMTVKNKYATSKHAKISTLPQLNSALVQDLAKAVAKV

cyclin B–MYT1 interaction (co-immunoprecipitation) [1]: disrupted the cyclin B–MYT1 interaction
cyclin B–WEE1 interaction (co-immunoprecipitation) [2]: also disrupted this interaction
Compound: CC(C)C[C@@H]1NC(=O)[C@@H](N(C)C(=O)[C@@H](NC(=O)[C@@H]2C[C@@H](F)CN2C(=O)C2(C(F)(F)F)CC(F)(F)C2)C2CC2)CCCCNC(=O)C(C)(C)NC(=O)[C@H](Cc2cc(Cl)nn2-c2ccccc2)N(C)C1=O [CIRc-019]

Reference: PMC12527934 (Nature, 2025)
